Results: patent publication US20210340177A1, “BIOACTIVE PEPTIDES HAVING HIGH BINDING AFFINITY TO HUMAN MUSCULAR NICOTINIC ACETYLCHOLINE RECEPTOR” (priority 2020, published 2021)

System: Human epidermal keratinocytes (HEKs)
Assay: MTT assay on human epidermal keratinocytes in in vitro cultures
Details: MTT reading at 570 nm, 24 hours after treatment

Lys-Lys-Tyr-Lys [Peptide V0083091A]
Effect on viability of the HEKs (cytotoxicity): non-cytotoxic effect | Effect on viability of the HEKs (cytotoxicity) (listed as KKYK): non-cytoxic effect
